Test results taken from PubChem BioAssay AID588664 (The Scripps Research Institute Molecular Screening Center, 2011).
This is a selection; strong and weak results do not stand in their true shares. Calls of active or inactive are those of the source. Rule as the data show it: active = inhibition above about 5% (passing the limit was not always enough); inactive = the rest.

Protein sequences, listed by entry. Tags and fused reporters are not part of them.
UniProt P00519, whole entry, looked up: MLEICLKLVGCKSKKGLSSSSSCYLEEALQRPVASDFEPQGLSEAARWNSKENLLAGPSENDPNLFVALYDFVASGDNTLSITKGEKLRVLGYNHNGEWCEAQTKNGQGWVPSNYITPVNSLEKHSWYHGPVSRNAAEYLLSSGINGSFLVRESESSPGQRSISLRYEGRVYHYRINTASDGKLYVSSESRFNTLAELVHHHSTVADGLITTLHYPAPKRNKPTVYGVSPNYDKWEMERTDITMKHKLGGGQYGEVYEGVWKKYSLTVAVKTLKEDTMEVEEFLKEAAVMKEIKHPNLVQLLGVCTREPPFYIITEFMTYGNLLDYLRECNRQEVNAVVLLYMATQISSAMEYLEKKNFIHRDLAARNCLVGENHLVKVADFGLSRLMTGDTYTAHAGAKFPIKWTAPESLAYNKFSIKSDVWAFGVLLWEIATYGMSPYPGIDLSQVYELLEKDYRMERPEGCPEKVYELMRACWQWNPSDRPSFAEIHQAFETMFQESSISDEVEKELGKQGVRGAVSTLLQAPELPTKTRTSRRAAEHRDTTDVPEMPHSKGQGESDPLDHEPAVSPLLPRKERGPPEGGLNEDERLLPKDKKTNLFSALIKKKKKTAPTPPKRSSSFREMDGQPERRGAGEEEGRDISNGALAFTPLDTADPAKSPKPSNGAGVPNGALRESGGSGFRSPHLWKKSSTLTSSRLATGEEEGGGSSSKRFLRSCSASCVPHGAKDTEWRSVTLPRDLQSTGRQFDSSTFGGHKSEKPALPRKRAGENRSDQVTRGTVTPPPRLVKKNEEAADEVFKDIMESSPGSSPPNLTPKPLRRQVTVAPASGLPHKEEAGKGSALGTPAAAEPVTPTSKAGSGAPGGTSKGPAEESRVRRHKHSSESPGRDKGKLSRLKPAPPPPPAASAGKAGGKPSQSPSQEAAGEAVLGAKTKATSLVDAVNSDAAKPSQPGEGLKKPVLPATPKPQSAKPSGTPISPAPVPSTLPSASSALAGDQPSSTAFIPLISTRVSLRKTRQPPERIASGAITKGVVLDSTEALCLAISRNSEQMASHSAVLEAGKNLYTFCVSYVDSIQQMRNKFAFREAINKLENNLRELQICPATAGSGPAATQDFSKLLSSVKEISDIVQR
UniProt Q13671, whole entry, looked up: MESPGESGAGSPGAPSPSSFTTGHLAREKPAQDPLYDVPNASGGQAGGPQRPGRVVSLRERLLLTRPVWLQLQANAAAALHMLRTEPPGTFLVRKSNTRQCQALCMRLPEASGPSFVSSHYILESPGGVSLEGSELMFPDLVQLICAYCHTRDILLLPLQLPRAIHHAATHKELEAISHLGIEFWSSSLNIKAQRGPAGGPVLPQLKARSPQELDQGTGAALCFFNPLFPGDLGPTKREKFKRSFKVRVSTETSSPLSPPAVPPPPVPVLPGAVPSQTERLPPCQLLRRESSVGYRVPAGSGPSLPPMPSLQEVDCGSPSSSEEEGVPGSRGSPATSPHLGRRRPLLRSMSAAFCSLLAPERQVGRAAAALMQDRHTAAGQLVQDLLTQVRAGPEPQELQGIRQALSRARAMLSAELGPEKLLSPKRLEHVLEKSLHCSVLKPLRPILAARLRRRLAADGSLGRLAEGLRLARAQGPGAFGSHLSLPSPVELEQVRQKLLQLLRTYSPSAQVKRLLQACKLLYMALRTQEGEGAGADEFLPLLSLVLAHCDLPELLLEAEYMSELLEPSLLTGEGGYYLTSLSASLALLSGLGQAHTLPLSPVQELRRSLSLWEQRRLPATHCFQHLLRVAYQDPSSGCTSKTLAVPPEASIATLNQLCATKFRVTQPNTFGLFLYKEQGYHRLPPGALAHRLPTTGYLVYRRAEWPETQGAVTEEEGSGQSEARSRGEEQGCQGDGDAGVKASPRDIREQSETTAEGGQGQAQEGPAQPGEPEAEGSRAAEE

Target: Tyrosine-protein kinase ABL1 (Homo sapiens) + Ras and Rab interactor 1 (Homo sapiens) (UniProt P00519+Q13671)
Assay: disruptors of human Abl and Rin1 association – biochemical, TR-FRET, primary screen (AID 588664)
Conditions: TR-FRET Rin1/Abl binding, at 7.35 µM, hits give high values

| SMILES | inhibition |
| --- | --- |
| CCC(=O)N(c1ccccc1)C1(COC)CCN(CCc2cccs2)CC1 | inactive: 0.94% |
| CCC(=O)N(c1ccccc1)C1(COC)CCN(CCn2nnn(CC)c2=O)CC1 | inactive: 1.18% |
